{"sequences": {"note": "By UniProt entry, the sequences of proteins in these tests, tags left out.", "UniProt Q9GZU1, whole entry L15A/L16A/L577A/L578A": "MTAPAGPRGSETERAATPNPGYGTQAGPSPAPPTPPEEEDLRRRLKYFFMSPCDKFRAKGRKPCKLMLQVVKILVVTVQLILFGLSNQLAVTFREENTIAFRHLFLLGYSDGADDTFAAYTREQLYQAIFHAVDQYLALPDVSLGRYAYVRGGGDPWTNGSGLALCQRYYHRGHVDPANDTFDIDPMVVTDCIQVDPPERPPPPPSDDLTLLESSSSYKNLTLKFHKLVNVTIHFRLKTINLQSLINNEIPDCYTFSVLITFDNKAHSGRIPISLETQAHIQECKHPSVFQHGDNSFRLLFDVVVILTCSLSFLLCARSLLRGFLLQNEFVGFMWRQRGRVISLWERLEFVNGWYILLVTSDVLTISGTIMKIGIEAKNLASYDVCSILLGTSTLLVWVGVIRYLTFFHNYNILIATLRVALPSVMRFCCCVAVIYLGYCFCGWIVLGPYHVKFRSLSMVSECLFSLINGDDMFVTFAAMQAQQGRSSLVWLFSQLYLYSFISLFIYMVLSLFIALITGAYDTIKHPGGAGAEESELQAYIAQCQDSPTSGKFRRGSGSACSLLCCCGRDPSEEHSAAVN"}, "source": "patent US20250136606A1", "about": "“MODULATORS OF TRPML, THEIR COMPOSITIONS AND METHODS OF USE” (Caraway Therapeutics, Inc., priority 2021, published 2025)", "key": {"TRPML1": {"target": "TRPML1 (Homo sapiens, UniProt Q9GZU1)", "assay": "Fluorescent TRPML1 assay (Fluo4-AM calcium fluorescence in doxycycline-induced HEK-293 Trex cells)", "details": "read-out: Human TRPML1 EC50", "experimental": "(§1) HEK-293 Trex cells were stably transfected with a construct consisting of the human coding sequence for TRPML1 cloned into the […] plasmid pCDNA5 T/O. Mutations were introduced into the TRPML1 sequence to facilitate expression on the cell surface (Silvia Vergarajauregui, Rosa Puertollano, Traffic. 2006 March; 7(3): 337-353). Briefly, the cells are cultured in 150 mm round tissue culture dishes containing 20 mL of media. The day before the assay the cells are rinsed with DPBS-Ca—Mg and then treated briefly with Trypsin-EDTA. The Trypsin-EDTA is diluted with growth media, and cells are counted. […]\n(§2) 50 microliters of dye-loaded cells are dispensed into each well of the compound assay plate created above. The fluorescence in each well is then determined with an excitation wavelength of 480 nm and an emission wavelength of 540 nm using either a Molecular Devices SpectraMax multimode plate reader or a Hamamatsu FDSS/uCell plate imager.\nThe resulting fluorescence for each well is exported as an ascii file and loaded into our LIMS for analysis. The percent activity of each compound at each concentration is determined by comparison to the positive and negative control wells included in each plate.\n(§3) EC50 values were calculated using a non-linear regression of Prism. […]"}, "TRPML2": {"target": "TRPML2 (Homo sapiens, UniProt Q8IZK6)", "assay": "Fluorescent TRPML2 assay (performed as for TRPML1, substituting the TRPML2 subtype)", "details": "read-out: Human TRPML2 EC50, fluorescent calcium assay", "experimental": "as §1, §2\n(§4) The resulting fluorescence for each well is exported as an ascii file and loaded into our LIMS for analysis. The percent activity of each compound at each concentration is determined by comparison to the positive and negative control wells included in each plate. […]\nas §3"}, "TRPML3": {"target": "TRPML3 (Homo sapiens, UniProt Q8TDD5)", "assay": "Fluorescent TRPML3 assay (performed as for TRPML1, substituting the TRPML3 subtype)", "details": "read-out: Human TRPML3 EC50, fluorescent calcium assay", "experimental": "as §1, §2, §4, §3"}}}
{"smiles": "C=CCOC(=O)N(CCOC)c1cn(-c2cc(Cl)ccn2)c2ncnc(N3CCN(C(=O)OC(C)(C)C)C[C@@H]3C)c12", "values": [{"measurement": "EC50", "setting": "TRPML1", "value": "< 0.1", "unit": "µM"}, {"measurement": "EC50", "setting": "TRPML2", "value": "0.5 to 2", "unit": "µM"}, {"measurement": "EC50", "setting": "TRPML3", "value": "< 0.1", "unit": "µM"}]}
